In the library only some 3.7% were active in any assay of this set; here they are far more common.
p53 reactivation: re-activators of mutant p53; Potency, µM (titrated, usually from 92.2 µM), inactives show at the highest dose activity change, positive = activation, actives largely listed as activators; 320,000 tested, 0.063% active; AID 504706; H1299 p53-A138V BP100-luciferase reporter, luminescence, 24 h; further: potency means the concentration at half of the fitted maximal effect; % of control where 0% means no effect; nearly all actives have a fitted effect of over 45% in size
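p53-null H1299 cells stably carrying temperature-sensitive p53-A138V and a BP100-luciferase reporter were pinned with compounds (4-point, 1:5 series) and held 24 hrs at 37 deg C. Luminescence was read 10 min after detection reagent.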
ClpP mod: qHTS Assay for Activators of ClpP; ATP-dependent Clp protease proteolytic subunit (Bacillus subtilis (strain 168)), P80244; Potency, µM (titrated, usually from 57.5 µM), for inactives: top-dose activity change, negative = active; purified B. subtilis ClpP, FRET peptide cleavage, 20 min; 340,000 tested, 1.9% active; AID 651965, 2013; active means well fitted falling curve with a large enough effect; inconclusive means small, poorly fitted or top-dose-only effect; inactive means no such curve, though single readings can be large or run the other way; further: potency means the concentration at half of the fitted maximal effect; the source files actives as falling curves though it sought activators and does not explain the sign; nearly all actives have a fitted effect of over 65% in size
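FRET quenching reversal measured ClpP activation: 10 microg/mL B. subtilis ClpP at pH 8 with the FRET-FV decapeptide, read at 430 nm after 320 nm excitation. The 20-min minus 0-min signal was scaled between DMSO/no-enzyme wells and ADEP (5.8 microM final).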
Nrf2 inh: inhibitors of Nrf2 signaling. A549 ARE-Fluc reporter, luciferase luminescence, 18-24 h. Potency, µM (titrated, usually from 46 µM), inactives show top-dose activity change, negative = inhibition, usual class: inhibitors. 360,000 tested, 2.1% active. AID 504444; further: potency means the concentration at half of the fitted maximal effect; on the % scale 0 is the no-effect control and ±100 the full control effect; nearly all actives have a fitted effect of over 60% in size
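Concentration-response testing used A549 ARE_Fluc cells at 5000 cells/well. Following an 18-24 h compound incubation, viability was read by fluorescence (Ex 405/Em 525) and luciferase output by luminescence.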
A549 viability: kills or reduces viability of A549 cells in Nrf2 counter-screen. Potency, µM (top dose mostly 46 µM), without a hit: top-dose activity change, negative = cytotoxicity, hits mostly inhibitors. 390,000 tested, 0.16% active. A549 ARE-Fluc cells, CellTiter-Fluor viability, 18-24 h; further: potency means the concentration at half of the fitted maximal effect; on the % scale 0 is the no-effect control and ±100 the full control effect
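A549 ARE_Fluc cells in 5% FBS OPTI-MEM were exposed to compounds in concentration-response for 18-24 h at 37 deg C. Viability was read by CellTiter-Fluor fluorescence (Ex 405/Em 525) after 30 min, before the luciferase read.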
Nrf2 ARE act: Nrf2 pathway activation; AREc32 ARE-luciferase reporter (MCF7-derived line), luminescence, 24 h; Potency, µM (series often up to 46.1 µM), for the others: at the highest dose activation, actives largely listed as activators; 410,000 tested, 0.31% active; further: potency means the concentration at half of the fitted maximal effect; % of control where 0% means no effect; nearly all actives have a fitted effect of over 65% in size
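ARE-driven firefly luciferase activity in AREc32 cells measured after a 24 hr compound exposure at 37 deg C, using Steady-Glo reagent and a 30 min room-temperature hold.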
miR-21 reporter: miR-21 reporter, rising signal; HeLa miR-21 FLuc reporter, luciferase, 48 h; Potency, µM (top dose mostly 38.3 µM), without a hit: at the highest dose reporter change, positive = more light; 340,000 tested, under 10 active; active = well fitted rising curve with a large enough effect; inconclusive = small, poorly fitted or top-dose-only effect; inactive = no such curve, though single readings can be large or run the other way;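 further: % of control where 0% means no effect; miR-21 action dims this reporter so a rising signal means less miR-21 action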
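HeLa cells stably expressing CMV-driven firefly luciferase with a downstream miR-21 binding sequence, endogenously expressing miR-21, were treated with titrations (up to about 40uM final) for 48 hours at 37 degree Celsius. Luciferase luminescence was read after lysis.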
An asterisk follows results filed as active; [ ] = remark or other dose. Unless noted, the call rests on the fitted dose curve; in most records, active means well fitted curve in the direction sought with a large enough effect; inconclusive means small, poorly fitted or top-dose-only effect, or another doubt; inactive means no such curve, though single readings can be large; an effect the other way counts as inactive or inconclusive.

`Oc1cnc2ccccc2c1CN1CCOCC1` gave p53 reactivation -1%, ClpP mod 20µM*, Nrf2 inh -14%, A549 viability -13%, Nrf2 ARE act 2% and miR-21 reporter -3%.
For Oc1ccc2ccccc2c1CN1CCOCC1 the results were p53 reactivation 6%, Nrf2 inh -10%, A549 viability 3%, Nrf2 ARE act 6% and miR-21 reporter -1%.
COc1ccc2nc(C(F)(F)Cl)c(C#N)c(N)c2c1 was read as p53 reactivation inconclusive, ClpP mod -1%, Nrf2 inh 21µM*, A549 viability -3%, Nrf2 ARE act -1% and miR-21 reporter 16%.
COc1ccc2nc3cc(Cl)ccc3c(C#N)c2c1 was read as p53 reactivation 2%, Nrf2 inh inconclusive, A549 viability 2%, Nrf2 ARE act 11% and miR-21 reporter -7%.
`CCOC(=O)c1sc2ncn(CC(=O)Nc3ccc(C)cc3Br)c(=O)c2c1C` gave ClpP mod 0%, Nrf2 inh -25%[9.27 µM], A549 viability 1%, Nrf2 ARE act 0% and miR-21 reporter 5%.
O=c1c2ccccc2nc(-c2ccoc2)n1CCc1ccccc1 was read as p53 reactivation -15%, ClpP mod 25µM*, A549 viability 4%, Nrf2 ARE act 6% and miR-21 reporter 17%.
`Nc1cc(-c2ccncc2)c[nH]c1=O` gave p53 reactivation -1%, ClpP mod 0%, Nrf2 inh -9%, A549 viability 1%, Nrf2 ARE act -1% and miR-21 reporter -6%.
Screening Nc1cc(-c2ccccc2)c[nH]c1=O returned Nrf2 inh 7.3µM* and A549 viability 5.8µM*.
`Cc1ccc(-n2nc(C)c(C(=O)NCCCN3CCN(c4cccc(Cl)c4)CC3)c2-n2cccc2)cc1` gave ClpP mod 1%, Nrf2 inh 16µM*, A549 viability inconclusive, Nrf2 ARE act -1% and miR-21 reporter inconclusive.
For Cc1ccc2nc(NC(=O)CSc3nncc(=O)n3N)sc2c1 the results were p53 reactivation inconclusive, ClpP mod 25µM*, Nrf2 inh 11%, A549 viability -2%, Nrf2 ARE act 0% and miR-21 reporter -21%.
For COc1ccc2nc(NC(=O)CSc3nnc(C)n3N)sc2c1 the results were p53 reactivation 16%, ClpP mod 3%, Nrf2 inh inconclusive, A549 viability 15%, Nrf2 ARE act 0% and miR-21 reporter -45%.
`COc1ccc(NC(=O)CSc2ccc3c4c(cccc24)C(=O)c2ccccc2-3)cc1` gave p53 reactivation 6%, ClpP mod 0%, Nrf2 inh 10µM*, A549 viability inconclusive, Nrf2 ARE act 4% and miR-21 reporter -4%.

Three compounds out of the list, ordered by number of heavy atoms, falling.
`Cc1ccc(-n2nc(C)c(C(=O)NCCCN3CCN(c4cccc(Cl)c4)CC3)c2-n2cccc2)cc1` gave ClpP mod 1%, Nrf2 inh 16µM*, A549 viability inconclusive, Nrf2 ARE act -1% and miR-21 reporter inconclusive.
`COc1ccc(NC(=O)CSc2ccc3c4c(cccc24)C(=O)c2ccccc2-3)cc1` gave p53 reactivation 6%, ClpP mod 0%, Nrf2 inh 10µM*, A549 viability inconclusive, Nrf2 ARE act 4% and miR-21 reporter -4%.
Screening Nc1cc(-c2ccccc2)c[nH]c1=O returned Nrf2 inh 7.3µM* and A549 viability 5.8µM*.

Other compounds:
`N#Cc1cccc(NC(=O)CSc2ccc3c4c(cccc24)C(=O)c2ccccc2-3)c1` gave p53 reactivation -4%, ClpP mod -2%, Nrf2 inh inconclusive, A549 viability 26µM*, Nrf2 ARE act inconclusive and miR-21 reporter -14%.
For COc1ccc(NC(=O)CSc2nnc(C)c3ccccc23)cc1 the results were p53 reactivation inconclusive, ClpP mod 0%, Nrf2 inh 19%, A549 viability -3%, Nrf2 ARE act inconclusive and miR-21 reporter -8%.
`CCOc1cc(-c2nc3ccccn3c2NCC2CCCO2)ccc1O` (stereo not given) gave p53 reactivation -1%, ClpP mod inconclusive, Nrf2 inh inconclusive, A549 viability -13%, Nrf2 ARE act 4% and miR-21 reporter 2%.
COc1cc(-c2nc3ccccn3c2NCC2CCCO2)ccc1O (stereo not given) was read as p53 reactivation 0%, ClpP mod 25µM*, A549 viability 10%, Nrf2 ARE act 7% and miR-21 reporter -2%.

Screens: PubChem BioAssay, National Center for Advancing Translational Sciences (NCATS)
